Test system: micropatterned co-cultures of primary human hepatocytes and 3T3-J2 fibroblasts
Settings: 9 days of exposure, up to 200 μM

CN(CCOc1ccc(CC2SC(=O)NC2=O)cc1)c1ccccn1 (stereo not shown) [Rosiglitazone, rosiglitazone]
chronic toxicity: minimal chronic toxicity

From patent publication US11366103B2, “Multi-well micropatterning by ablation” (Massachusetts Institute of Technology, priority 2006, dated 2022)
